In patent US12251434B2 (priority 2021, dated 2025):

System: hyaluronic acid
Experiment: Inhibitory ability of hyaluronic acid inhibitor 4-MU on hyaluronic acid with overexpressed viral target, ELISA
Format: cell-based
Settings: 4-MU 100 μM, summary of Table 5

## 4-Methylumbelliferone
  hyaluronic acid produced due to overexpression of the target sequence: reduced
